The results in this text go back to PMC3588188, “Interactions between Human Liver Fatty Acid Binding Protein and Peroxisome Proliferator Activated Receptor Selective Drugs” (PPAR Research, 2013).

The target of this test is T1, human PPARα LBD (aa 196–468) (Homo sapiens, UniProt Q07869).
T1 construct: LBD of human PPARα (aa 196–468); [His]6 (N); made in house; host or cells: E. coli BL21 Codon Plus (DE3)-RIL (plasmid from Krister Bamberg, Astra-Zeneca)
T1 sequence (Q07869 196-468): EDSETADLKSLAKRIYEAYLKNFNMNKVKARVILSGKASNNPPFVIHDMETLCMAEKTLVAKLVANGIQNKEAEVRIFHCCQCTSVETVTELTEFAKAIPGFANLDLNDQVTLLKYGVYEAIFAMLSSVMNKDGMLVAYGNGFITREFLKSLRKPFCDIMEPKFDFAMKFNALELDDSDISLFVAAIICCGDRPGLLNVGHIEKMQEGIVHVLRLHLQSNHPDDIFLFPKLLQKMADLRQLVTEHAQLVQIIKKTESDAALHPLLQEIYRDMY
In words: cis-parinaric acid fluorescence displacement assay with PPARα LBD. Particulars: cis-parinaric acid (2 μM) displacement, LBD 1 μM; nd = no binding detected; read-out: Ki, PPARαLBD. The protocol:
Proteins were resolved using a step gradient of 0–300 mM imidazole in buffer A (50 mM Tris-HCl, pH 8.0; 500 mM NaCl; 0.5 mM ethylenediaminetetraacetic acid (EDTA); 1 mM dithiothreitol (DTT); 5% (v/v) glycerol) at a flow rate of 5 mL/min (4 column volumes (CVs) washout unbound sample; 0%–30% imidazole over 5 CVs; hold 30% for 2 CVs; 30%–100% imidazole over 5 CVs; hold 100% for 3 CVs).

With `Cc1nc(-c2ccc(C(F)(F)F)cc2)sc1C(=O)NCc1ccc(OC(C)(C)C(=O)O)cc1` [GW590735], the Ki (as a rule, the dissociation constant of the complex between target and ligand, obtained from inhibition or displacement) was found to be 60 ± 4 nM.
